{
  "sequences": {"note": "Amino acid sequences for entries named in this document (tags omitted).", "UniProt P31424, whole entry": "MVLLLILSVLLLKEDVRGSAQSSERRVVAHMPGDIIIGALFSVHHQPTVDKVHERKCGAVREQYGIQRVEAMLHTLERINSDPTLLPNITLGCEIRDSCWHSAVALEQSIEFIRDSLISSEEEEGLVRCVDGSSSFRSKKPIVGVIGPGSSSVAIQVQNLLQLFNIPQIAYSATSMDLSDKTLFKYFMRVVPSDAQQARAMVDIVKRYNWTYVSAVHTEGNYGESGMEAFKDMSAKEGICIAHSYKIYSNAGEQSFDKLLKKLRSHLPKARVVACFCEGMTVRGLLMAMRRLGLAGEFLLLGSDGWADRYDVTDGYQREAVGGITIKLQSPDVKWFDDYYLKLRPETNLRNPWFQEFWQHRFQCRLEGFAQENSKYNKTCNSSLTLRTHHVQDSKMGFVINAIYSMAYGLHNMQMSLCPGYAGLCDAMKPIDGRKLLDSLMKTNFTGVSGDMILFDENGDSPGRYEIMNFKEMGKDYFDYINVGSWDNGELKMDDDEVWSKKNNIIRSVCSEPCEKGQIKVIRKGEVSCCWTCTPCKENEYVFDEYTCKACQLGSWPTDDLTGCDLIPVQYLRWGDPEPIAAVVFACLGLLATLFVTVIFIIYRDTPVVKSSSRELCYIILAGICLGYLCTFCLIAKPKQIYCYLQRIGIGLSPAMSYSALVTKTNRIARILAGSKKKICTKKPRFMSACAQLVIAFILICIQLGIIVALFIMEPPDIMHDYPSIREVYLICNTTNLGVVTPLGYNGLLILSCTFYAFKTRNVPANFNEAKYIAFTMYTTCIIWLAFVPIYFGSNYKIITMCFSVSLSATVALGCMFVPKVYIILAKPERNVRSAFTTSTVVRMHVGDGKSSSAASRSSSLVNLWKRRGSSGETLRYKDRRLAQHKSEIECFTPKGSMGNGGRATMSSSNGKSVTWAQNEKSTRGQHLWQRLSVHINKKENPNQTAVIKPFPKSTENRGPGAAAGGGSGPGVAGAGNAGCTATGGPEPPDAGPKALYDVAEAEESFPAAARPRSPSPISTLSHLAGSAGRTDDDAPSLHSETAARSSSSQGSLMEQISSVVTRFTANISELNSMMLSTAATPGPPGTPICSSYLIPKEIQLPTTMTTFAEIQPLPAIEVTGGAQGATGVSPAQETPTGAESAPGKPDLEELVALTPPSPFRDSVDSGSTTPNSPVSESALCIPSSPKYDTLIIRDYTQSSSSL"},
  "source": "ChEMBL document CHEMBL1770108",
  "about": "“Design and synthesis of substituted N-(1,3-diphenyl-1H-pyrazol-5-yl)benzamides as positive allosteric modulators of the metabotropic glutamate receptor subtype 5” (Bioorg Med Chem Lett, 2011)",
  "molecular_target": "Metabotropic glutamate receptor 5 (Rattus norvegicus, UniProt P31424)",
  "test": "Displacement of [3H]-MPEP from rat mGluR5",
  "data": [
    {"smiles": "Cc1cccc(C#Cc2ccccc2)n1", "values": [
      {"measurement": "Ki", "value": 13, "unit": "nM"}
    ]}
  ]
}
